# Test results as given in PubChem BioAssay AID2517 (National Center for Advancing Translational Sciences (NCATS), 2010).
# Chains of the proteins cited; added tags and fusions are not shown.
# UniProt P27695, whole entry, looked up: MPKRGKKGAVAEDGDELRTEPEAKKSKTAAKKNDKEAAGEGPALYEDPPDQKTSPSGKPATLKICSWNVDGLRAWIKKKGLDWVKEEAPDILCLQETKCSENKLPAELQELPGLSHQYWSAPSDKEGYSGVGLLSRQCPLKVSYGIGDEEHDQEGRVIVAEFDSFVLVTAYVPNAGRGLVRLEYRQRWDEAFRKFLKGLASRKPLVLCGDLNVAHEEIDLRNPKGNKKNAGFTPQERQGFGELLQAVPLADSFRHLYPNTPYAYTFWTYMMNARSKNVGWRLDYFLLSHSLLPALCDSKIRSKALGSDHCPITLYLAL
# Where “and” joins values, the source holds several entries; their conditions need not be identical. Identical values can stand only once. Only a part is listed here, and it is no random draw. Records with an inconclusive call do not appear. Calls of active or inactive are those of the source. Calls follow the shape of the dose curve; as a rule, active = well fitted inhibition curve with a large enough effect; inconclusive = small, poorly fitted or top-dose-only effect; inactive = no such curve, though single readings can be large or run the other way.
# Target: DNA repair nuclease/redox regulator APEX1 (Homo sapiens) (UniProt P27695)
# Assay: qHTS Assay for Inhibitors of the Human Apurinic/apyrimidinic Endonuclease 1 (APE1); also: nearly all actives have a fitted effect of over 55% in size
# Conditions: recombinant APE1, TAMRA/BHQ-2 abasic DNA cleavage fluorescence
# Source text: The apurinic/apyrimidinic endonuclease APE1 is the primary mammalian enzyme responsible for the removal of abasic (or AP) sites in DNA and functions centrally in the base excision DNA repair (BER) pathway. […] Thus, targeting APE1 could improve the efficacy of current treatment paradigms by promoting selective sensitization or protection of diseased and normal cells, respectively.
# Inhibition of APE1 activity was screened by utilizing double-stranded short substrate containing tetrahydrofuran (THF) abasic site labeled with rhodamine-type fluorophore (TAMRA) at the 5'-end and with non-fluorescent Black Hole Quencher-2 (BHQ-2) at the opposing 3'-end. An increase in the fluorescence intensity due to incision of the abasic site by APE1 was used to measure the enzyme activity.
# NIH Chemical Genomics Center [NCGC]
# NIH Molecular Libraries Probe Centers Network [MLPCN] […]
# Three uL of enzyme solution (0.75 nM APE1 final concentration) was dispensed to 1536-well Greiner black solid bottom plates. […] The plates were immediately transferred into ViewLux High-throughput CCD imager (Perkin-Elmer) in order to measure the reaction progress in kinetic mode (three reads every 60 seconds) using 525 nm excitation and 598 nm emission fluorescence protocol. The fluorescence intensity difference between the third and the first time points was used to compute reaction progress. […]
# Potency is read from the fitted curve at half-maximal effect.
row,SMILES,Potency
1,O=c1c(O)c(-c2cc(O)c(O)c(O)c2)oc2cc(O)cc(O)c12,active: 282 nM and active: 316 nM and active: 238 nM
